The source of these data is PMC3704644, “UV-Induced Nuclear Import of XPA Is Mediated by Importin-α4 in An ATR-Dependent Manner” (PLoS ONE, 2013).

For one assay, the target named is T1, importin-α4, endogenous (human (endogenous in H1299, A549, …, UniProt O00505 1-521)).
T1 construct: importin-α4 (importin subunit alpha-4), human, endogenous in the cell lines used; detected and precipitated with a Genetex antibody; some sources swap the names α3 and α4 (KPNA4/KPNA3); also called Imp α4; source: endogenous, H1299, A549 or GM04429 (XPA-/-) lysate; also immunoprecipitated from H1299 lysate and washed with high salt (0.6 M NaCl)
T1 sequence (looked up): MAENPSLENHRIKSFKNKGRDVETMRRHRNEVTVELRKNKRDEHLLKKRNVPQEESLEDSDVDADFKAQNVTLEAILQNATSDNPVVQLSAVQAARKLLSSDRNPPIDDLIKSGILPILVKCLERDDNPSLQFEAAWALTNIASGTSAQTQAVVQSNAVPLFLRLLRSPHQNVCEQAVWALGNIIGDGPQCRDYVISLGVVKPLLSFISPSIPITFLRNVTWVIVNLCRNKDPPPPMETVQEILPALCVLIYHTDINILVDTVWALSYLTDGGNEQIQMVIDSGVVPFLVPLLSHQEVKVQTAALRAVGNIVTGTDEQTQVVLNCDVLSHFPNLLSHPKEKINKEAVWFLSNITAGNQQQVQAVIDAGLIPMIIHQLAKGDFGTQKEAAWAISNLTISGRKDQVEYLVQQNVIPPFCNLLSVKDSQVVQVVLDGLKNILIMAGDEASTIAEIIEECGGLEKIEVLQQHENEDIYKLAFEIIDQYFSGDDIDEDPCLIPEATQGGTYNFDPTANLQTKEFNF
The assay is described as follows: co-IP; endogenous proteins; whole cell lysates of H1299 cells UV-C irradiated (20 J/m^2, 1/2 h recovery), or of A549 cells with control or ATR siRNA, mock or UV; NETN buffer (20 mM Tris-HCl pH 8.0, 100 mM NaCl, 1 mM EDTA, 0.5% NP-40), 4°C overnight; IP with importin-α4 or importin-α7 antibody, protein G-agarose, Western blot of XPA. The note with it: partners not purified.

The target of the next assay is T2, importin-α7, endogenous (human (endogenous in H1299, GM04429), UniProt O60684).
T2 construct: importin-α7 (importin subunit alpha-7), human, endogenous in the cell lines used; detected and precipitated with a Genetex antibody; source: endogenous, H1299 or GM04429 (XPA-/-) lysate; also immunoprecipitated from H1299 lysate and washed with high salt (0.6 M NaCl)
In words: co-IP; 1.0 µg purified recombinant XPA mixed with 2 mg lysate of mock or UV-irradiated (20 J/m^2, 1/2 h recovery) GM04429 (XPA-/-) cells; IP with antibody to the C-terminal of XPA, 4°C overnight, protein G-agarose, NETN washes; Western blot of importins. Particulars: one partner purified.

B1: Xeroderma pigmentosum Group A (XPA) protein, endogenous (natural protein, human (endogenous in H1299 and A549), UniProt P23025 1-273, looked up)
chain: MAAADGALPEAAALEQPAELPASVRASIERKRQRALMLRQARLAARPYSATAAAATGGMANVKAAPKIIDTGGGFILEEEEEEEQKIGKVVHQPGPVMEFDYVICEECGKEFMDSYLMNHFDLPTCDNCRDADDKHKLITKTEAKQEYLLKDCDLEKREPPLKFIVKKNPHHSQWGDMKLYLKLQIVKRSLEVWGSQEALEEAKEVRQENREKMKQKKFDKKVKELRRAVRSSVWKRETIVHQHEYGPEENLEDDMYRKTCTMCGHELTYEKM
notes: XPA (xeroderma pigmentosum group A protein), human, endogenous in H1299 and A549 cells; also called endogenous XPA; cellular XPA; source: endogenous, H1299 or A549 whole cell lysate
B1: in the assay with importin-α4, endogenous, the “fold increase of the interaction after UV irradiation (against cells without UV)” value is 2.8 fold.

B2: purified recombinant XPA protein (natural protein, human, UniProt P23025 1-273, looked up)
chain: B1 chain
notes: XPA (xeroderma pigmentosum group A protein), human; also called purified XPA protein; source: purified recombinant protein
B2: the binding result with importin-α7, endogenous is on record as “binds”.
